{"sequences": {"note": "Sequences of proteins named here, by UniProt entry; tags and fusion partners are left off.", "UniProt Q14524, whole entry": "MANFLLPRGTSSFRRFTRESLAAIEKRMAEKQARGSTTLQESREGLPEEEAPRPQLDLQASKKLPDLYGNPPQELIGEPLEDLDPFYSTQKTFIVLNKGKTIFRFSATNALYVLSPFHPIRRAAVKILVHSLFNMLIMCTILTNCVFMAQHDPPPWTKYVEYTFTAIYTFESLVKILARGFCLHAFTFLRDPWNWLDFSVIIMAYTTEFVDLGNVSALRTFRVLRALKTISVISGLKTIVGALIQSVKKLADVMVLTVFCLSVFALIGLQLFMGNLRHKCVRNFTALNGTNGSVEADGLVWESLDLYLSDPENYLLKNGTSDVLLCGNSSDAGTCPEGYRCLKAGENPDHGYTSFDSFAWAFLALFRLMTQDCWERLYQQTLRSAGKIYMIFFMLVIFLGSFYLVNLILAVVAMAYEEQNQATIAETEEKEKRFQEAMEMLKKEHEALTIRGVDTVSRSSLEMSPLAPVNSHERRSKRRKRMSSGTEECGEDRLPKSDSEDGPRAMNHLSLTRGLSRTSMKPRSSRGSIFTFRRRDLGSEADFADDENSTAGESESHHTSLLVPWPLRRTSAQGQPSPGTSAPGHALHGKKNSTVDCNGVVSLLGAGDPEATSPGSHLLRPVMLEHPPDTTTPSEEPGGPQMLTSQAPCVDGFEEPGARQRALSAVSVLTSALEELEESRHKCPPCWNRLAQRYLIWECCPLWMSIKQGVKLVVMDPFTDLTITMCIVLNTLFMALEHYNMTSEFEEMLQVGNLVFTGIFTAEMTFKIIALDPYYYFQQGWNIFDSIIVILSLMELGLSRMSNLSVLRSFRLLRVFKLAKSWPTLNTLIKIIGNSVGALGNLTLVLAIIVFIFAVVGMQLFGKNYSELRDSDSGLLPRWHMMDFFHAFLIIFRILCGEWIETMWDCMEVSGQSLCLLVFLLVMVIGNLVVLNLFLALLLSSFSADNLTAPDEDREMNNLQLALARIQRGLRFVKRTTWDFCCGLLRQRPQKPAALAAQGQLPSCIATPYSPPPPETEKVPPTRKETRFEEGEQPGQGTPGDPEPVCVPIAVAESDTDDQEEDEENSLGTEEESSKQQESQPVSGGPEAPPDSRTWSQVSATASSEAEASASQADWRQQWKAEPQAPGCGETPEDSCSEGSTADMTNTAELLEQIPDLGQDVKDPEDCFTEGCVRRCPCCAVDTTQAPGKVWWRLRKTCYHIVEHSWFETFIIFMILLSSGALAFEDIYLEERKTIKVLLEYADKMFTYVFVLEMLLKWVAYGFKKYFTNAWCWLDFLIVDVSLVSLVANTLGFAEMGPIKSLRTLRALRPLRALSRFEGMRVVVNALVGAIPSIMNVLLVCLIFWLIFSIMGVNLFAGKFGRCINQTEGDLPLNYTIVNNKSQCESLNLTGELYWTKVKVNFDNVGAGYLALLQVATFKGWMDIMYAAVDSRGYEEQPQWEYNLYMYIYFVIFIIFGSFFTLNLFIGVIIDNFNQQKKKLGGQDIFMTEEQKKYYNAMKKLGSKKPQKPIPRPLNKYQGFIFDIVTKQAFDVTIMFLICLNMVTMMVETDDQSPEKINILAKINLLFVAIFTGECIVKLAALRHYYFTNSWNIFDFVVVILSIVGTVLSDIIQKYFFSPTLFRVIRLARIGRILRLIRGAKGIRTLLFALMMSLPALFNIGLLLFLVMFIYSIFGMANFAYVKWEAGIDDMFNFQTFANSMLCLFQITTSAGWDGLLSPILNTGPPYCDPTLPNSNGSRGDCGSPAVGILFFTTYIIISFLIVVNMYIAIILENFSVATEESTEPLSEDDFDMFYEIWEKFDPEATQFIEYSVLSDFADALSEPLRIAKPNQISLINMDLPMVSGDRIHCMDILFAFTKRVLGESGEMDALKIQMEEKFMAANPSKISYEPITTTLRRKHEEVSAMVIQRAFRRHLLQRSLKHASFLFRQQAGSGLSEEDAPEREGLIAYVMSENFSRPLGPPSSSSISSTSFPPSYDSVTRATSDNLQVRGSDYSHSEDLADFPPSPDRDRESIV"}, "source": "paper PMC5858560", "about": "(2011)", "target": "Nav1.5 channel (Homo sapiens, UniProt Q14524)", "assay": "PatchXpress Nav1.5 channel assay in CHL-Nav1.5 cells", "format": "cell-based", "data": [{"molecule": "CCN(CC)CCNC(=O)c1c(C)[nH]c(/C=C2\\C(=O)Nc3ccc(F)cc32)c1C", "note": "[sunitinib, Sunitinib]", "values": [{"measurement": "IC50", "value": 7, "unit": "µM"}]}]}
